Data: EP0584223B1, “NOVEL IMMUNOSUPPRESSIVE COMPOUNDS” (VERTEX PHARMACEUTICALS INCORPORATED, priority 1991, dated 1992)

Chains of the proteins cited; added tags and fusions are not shown.
UniProt P62942, whole entry: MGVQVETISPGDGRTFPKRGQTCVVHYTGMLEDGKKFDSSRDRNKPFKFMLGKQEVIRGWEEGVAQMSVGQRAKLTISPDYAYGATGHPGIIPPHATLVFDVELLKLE

Target: FKBP (Homo sapiens, UniProt P62942)
Assay: Inhibition of FKBP PPIase (rotamase) activity, chymotrypsin-coupled assay
Format: biochemical
Conditions: apparent Ki
From the text: The inhibition of the PPIase (rotamase) enzyme activity of the FKBP (apparent "Ki" values) can also be measured according to the methods described by either Harding, M.W. et al., Nature 341:758-760 (1989) or Siekierka, J.J. et al., Nature 341:755-757 (1989). The cis-trans isomerization of the […] peptide bond in a model substrate, N-succinyl-Ala-Ala-Pro-Phe-p-nitroanilide, is monitored spectrophotometrically in a coupled assay with chymotrypsin, which releases 4-nitroanilide from the trans form of the substrate. Fischer, G. et al., Nature 337:476-478 (1989). The inhibitory effect of the addition of different concentrations of inhibitor on the extent of the reaction is determined, and analysis of the change in first order rate constant as a function of inhibitor concentration yields an estimate of the apparent Ki value.

Ki: 3 nM
Structure (SMILES): COc1cc(C(=O)C(=O)N2CCCC[C@H]2C(=O)OC(CCCc2ccccc2)CCc2cccnc2)cc(OC)c1OC (mixture of isomers) [Compound 7, (R and S)-6-Phenyl-1-(3-pyridyl)-3-hexyl (S)-N-(3,4,5-trimethoxyphenylglyoxyl)pipecolate]
